# Target: human epidermal growth factor receptor expressed on M3-EGFR cells (human) (UniProt P00533)
# Experiment: radioligand binding
substance,measurement,value
human epidermal growth factor labeled with 125I (ligand),Kd,5.3 nM
